What all share (assay): FOREST: bead pull-down of RNA structure library v1, barcode microarray; U1A/LIN28A: 20 mM HEPES pH 7.5, 80 mM KCl, 20 mM NaCl, 10% glycerol, 2 mM DTT, 0.1 ug/uL BSA, 4 C; BG4/CIRBP/DHX36: 10 mM Tris-HCl pH 7.5, 100 mM KCl (or LiCl),; high values mean tight binding
For test [1], the target named is U1A (Homo sapiens, UniProt P09012).
In test [2] the target is T1, LIN28A (human?, UniProt Q9H9Z2 1-209).
T1 sequence: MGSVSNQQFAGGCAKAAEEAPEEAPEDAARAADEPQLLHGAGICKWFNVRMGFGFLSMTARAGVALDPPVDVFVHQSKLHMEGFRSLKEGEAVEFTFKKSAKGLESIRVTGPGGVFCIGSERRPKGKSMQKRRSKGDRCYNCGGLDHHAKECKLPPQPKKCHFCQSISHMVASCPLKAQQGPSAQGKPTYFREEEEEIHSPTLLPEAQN

For test [3], the target named is T2, CIRBP (Homo sapiens, UniProt Q14011 1-172).
T2 sequence: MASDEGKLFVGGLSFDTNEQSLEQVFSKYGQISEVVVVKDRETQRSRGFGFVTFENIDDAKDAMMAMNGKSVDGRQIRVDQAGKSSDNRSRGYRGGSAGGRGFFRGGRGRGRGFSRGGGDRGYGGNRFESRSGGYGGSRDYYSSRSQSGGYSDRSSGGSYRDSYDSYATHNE

The target of test [4] is T3, DHX36 (Homo sapiens, UniProt Q9H2U1 1-1008).
T3 sequence: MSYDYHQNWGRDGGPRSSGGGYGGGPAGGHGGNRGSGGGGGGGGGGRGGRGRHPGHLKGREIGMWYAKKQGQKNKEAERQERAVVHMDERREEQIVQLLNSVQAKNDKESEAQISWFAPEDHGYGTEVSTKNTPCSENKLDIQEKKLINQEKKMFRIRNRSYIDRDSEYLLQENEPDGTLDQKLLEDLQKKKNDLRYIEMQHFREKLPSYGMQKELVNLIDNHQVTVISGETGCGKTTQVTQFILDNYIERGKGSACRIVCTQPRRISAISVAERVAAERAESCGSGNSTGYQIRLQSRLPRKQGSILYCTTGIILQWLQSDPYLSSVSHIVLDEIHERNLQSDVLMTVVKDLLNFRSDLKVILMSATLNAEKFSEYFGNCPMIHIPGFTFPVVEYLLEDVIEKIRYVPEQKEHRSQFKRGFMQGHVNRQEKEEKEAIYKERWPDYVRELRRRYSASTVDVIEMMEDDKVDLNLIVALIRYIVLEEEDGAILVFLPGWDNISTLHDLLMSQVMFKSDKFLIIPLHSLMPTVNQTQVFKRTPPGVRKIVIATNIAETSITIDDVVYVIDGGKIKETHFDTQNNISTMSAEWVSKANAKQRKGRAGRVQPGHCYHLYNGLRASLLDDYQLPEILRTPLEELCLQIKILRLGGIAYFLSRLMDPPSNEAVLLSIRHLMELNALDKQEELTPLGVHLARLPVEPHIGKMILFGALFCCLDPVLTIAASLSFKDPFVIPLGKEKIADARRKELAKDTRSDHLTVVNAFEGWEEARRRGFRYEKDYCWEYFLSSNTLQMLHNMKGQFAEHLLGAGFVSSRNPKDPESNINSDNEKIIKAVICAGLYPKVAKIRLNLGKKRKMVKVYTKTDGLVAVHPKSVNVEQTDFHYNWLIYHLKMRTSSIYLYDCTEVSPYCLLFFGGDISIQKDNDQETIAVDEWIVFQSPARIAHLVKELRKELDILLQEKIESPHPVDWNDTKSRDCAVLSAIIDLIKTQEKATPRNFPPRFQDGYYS

Our source for the binding signal values is publication PMC7723054.

This is one part of the list.

B1: hsa-mir-566 (structured_RNA)
RNA: GGGACGCCUGCCUGGAAACCGUUGAUAUGGUGUACGAAGUUUCAGCCAACUACUCAGGAGGCUGGCUGAAGCUUCGUGCAC
Take B1: the binding signal was 0.297 z-score in test [1], -0.856 z-score in test [2], 0.408 z-score in test [3] and -0.842 z-score in test [4].

B2: PARIS_ID10 (structured_RNA)
RNA: GGGAAAGUCAGGACCUACGACGACUCACGGUGUACGAAGUUUCAGCGUCAUGUGUCUGCUGGUGAUGCUGAAGCUUCGUGCAC
Turning to B2, the binding signal in test [1] is 0.304 z-score; in test [2], 0.617 z-score; in test [3] it was 0.0883 z-score; in test [4], -0.238 z-score.

B3: hsa-mir-1266 (structured_RNA)
RNA: GGGACCAGACUCUGGGAGUAGAGUACAAGGUGUACGAAGUUUCAGCAGGGCUGGGAUUACUAAAGCCCUGCUGAAGCUUCGUGCAC
B3: the binding signal in test [1] is 0.309 z-score; in test [2] it was 1.38 z-score; in test [3] it was -1.07 z-score; in test [4] it was 0.317 z-score.

B4: NEAT1_ParasoR_ID32 (structured_RNA)
RNA: GGGAACGGGGUGCUCCAUACCUAAUAUUGGUGUACGAAGUUUCAGCUCCUGUAAGGCAAGAAUAUUCUCUCUGUUGGAACUCAAAUACACAGAACUGGGUAAAUCUCAAUCUUAAUCUUUGAUUCAGGAGCUGAAGCUUCGUGCAC
Take B4: the binding signal in test [1] was 0.309 z-score; in test [2], 0.402 z-score; in test [3], -0.722 z-score; in test [4], -0.141 z-score.

B5: hsa-mir-296 (structured_RNA)
RNA: GGGACCGAUAUCGUGAGAGGACGAGUUGGGUGUACGAAGUUUCAGCCUGUUGUGCCUAAUUCAGAGGCUGAAGCUUCGUGCAC
B5: the binding signal in test [1] was 0.316 z-score; in test [2], 0.291 z-score; in test [3] it was 1.02 z-score; in test [4], 1.39 z-score.

B6: hsa-mir-4509-1_4509-3_4509-2 (structured_RNA)
RNA: GGGAAUGAUGGGAUCCAUAAGACCAGUCGGUGUACGAAGUUUCAGCUUUUCCCUUUCUCUUGCCCUGAAAGCUGAAGCUUCGUGCAC
Turning to B6, the binding signal in test [1] was 0.315 z-score; in test [2], -0.67 z-score; in test [3] it was 0.801 z-score; in test [4], 0.25 z-score.

B7: hsa-mir-6769b (structured_RNA)
RNA: GGGAGAGGCCAGAGAAUCAUUUACGGUCGGUGUACGAAGUUUCAGCAAGUGCCGUCCUCAUGAGCCCCUGCUGAAGCUUCGUGCAC
For the molecule B7, the binding signal in test [1] was 0.319 z-score; in test [2], -0.217 z-score; in test [3], 0.726 z-score; in test [4], 0.635 z-score.

B8: hsa-mir-5001 (structured_RNA)
RNA: GGGACCUAAAGAGACCGAAGCCCUGUAUGGUGUACGAAGUUUCAGCGGAGCUGGCUGCUGGCCUCAGUUCUGCUGAAGCUUCGUGCAC
For the molecule B8, the binding signal in test [1] was 0.3 z-score; in test [2], -0.474 z-score; in test [3] it was 1.81 z-score; in test [4] it was 0.0699 z-score.

B9: hsa-mir-7976 (structured_RNA)
RNA: GGGACAACACUCUGCGUUCCAGUAAGCUGGUGUACGAAGUUUCAGCGCUCUAAUAAUUUAUUCUAAUAAUAAUUUAGAUCGCUGAAGCUUCGUGCAC
On to B9, for which the binding signal in test [1] is 0.309 z-score; in test [2] it was -1.44 z-score; in test [3], -0.963 z-score; in test [4] it was -0.957 z-score.

B10: hsa-mir-424 (structured_RNA)
RNA: GGGAGAGGACCCUAUGGUUCACUGCACGGGUGUACGAAGUUUCAGCUUUGAAGUGUUCUAAAUGGUUCAAAGCUGAAGCUUCGUGCAC
For B10, the binding signal is 0.319 z-score in test [1], -1.81 z-score in test [2] and -1.15 z-score in test [3].

B11: hsa-mir-4487 (structured_RNA)
RNA: GGGACCCACCGUUUGCUAGUCUACGGUAGGUGUACGAAGUUUCAGCAGCUGGCUGAAGGGCAGAAGGGAACUGUCCUUCAGCCAGAGGCUGAAGCUUCGUGCAC
Turning to B11, the binding signal was 0.319 z-score in test [1], -1.17 z-score in test [2], -0.349 z-score in test [3] and -0.295 z-score in test [4].

B12: hsa-mir-370 (structured_RNA)
RNA: GGGAAACUUGACCAAGCGUGUAGAAUUUGGUGUACGAAGUUUCAGCAGUUACACAGCUCACGAGUGCCUGCUGAAGCUUCGUGCAC
As for B12, the binding signal was 0.314 z-score in test [1], 0.225 z-score in test [2], 0.0612 z-score in test [3] and -0.563 z-score in test [4].

B13: hsa-mir-183 (structured_RNA)
RNA: GGGAACAACUUAGCGCACCUCCGUAUCAGGUGUACGAAGUUUCAGCUCACUGUGAACAGUCUCAGUCAGUGAGCUGAAGCUUCGUGCAC
For B13, the binding signal in test [1] was 0.314 z-score; in test [2], -0.993 z-score; in test [3], -0.988 z-score; in test [4], -0.764 z-score.

B14: hsa-mir-431 (structured_RNA)
RNA: GGGAAGGGUAACUUGGAUGUACGGACUUGGUGUACGAAGUUUCAGCCAUGCAGGCCACACUGACGGUAACGUUGCAGGGCUGAAGCUUCGUGCAC
For the molecule B14, the binding signal was 0.309 z-score in test [1], -0.492 z-score in test [2], -1.62 z-score in test [3] and -0.218 z-score in test [4].

B15: hsa-mir-4417 (structured_RNA)
RNA: GGGAAGCGCAAGGCACGUUAUCAAUCCCGGUGUACGAAGUUUCAGCGGGCGGAACACCCAGCCCCGCUGAAGCUUCGUGCAC
As for B15, the binding signal in test [1] was found to be 0.3 z-score; in test [2], 0.615 z-score; in test [3] it was 0.823 z-score; in test [4] it was 0.991 z-score.

B16: hsa-mir-6086 (structured_RNA)
RNA: GGGAUAACUGGAAAGUUCGAACUCCGACGGUGUACGAAGUUUCAGCAGAGAUGAGCAUAAAGUUUUUGCUGAAGCUUCGUGCAC
B16: the binding signal in test [1] is 0.321 z-score; in test [2] it was 0.697 z-score; in test [3], -0.754 z-score; in test [4] it was 0.327 z-score.

B17: PARIS_ID19 (structured_RNA)
RNA: GGGCCAAUGUAAACUGAGUGGCAAUUAGGGUGUACGAAGUUUCAGCUAUAGAAAAAGGCCAUGUAGAAGAUAAAAGUUCCUCUAUAGCUGAAGCUUCGUGCAC
With B17, the binding signal was 0.314 z-score in test [1], 1.06 z-score in test [2], 0.42 z-score in test [3] and 1.14 z-score in test [4].

B18: hsa-mir-5190 (structured_RNA)
RNA: GGGAGGGAGUUUCCCUUUCGACAUCAGCGGUGUACGAAGUUUCAGCAUGGUUAAUGUUCCACAGCCAGCUGAAGCUUCGUGCAC
In the case of B18, the binding signal in test [1] is 0.317 z-score; in test [2], -1.84 z-score; in test [3] it was -1.52 z-score; in test [4], 0.494 z-score.

B19: hsa-mir-132 (structured_RNA)
RNA: GGGACUAGCAUGACGCUGAAUAUUAGCAGGUGUACGAAGUUUCAGCGUUACUGUGGGAACUGGAGGUAACGCUGAAGCUUCGUGCAC
Take B19: the binding signal is 0.302 z-score in test [1], 0.418 z-score in test [2], -0.724 z-score in test [3] and 0.187 z-score in test [4].

B20: hsa-mir-200b (structured_RNA)
RNA: GGGAAGCGUGGUAUCUAUAUCGUACAAGGGUGUACGAAGUUUCAGCAUUGGAUGGAGUCAGGUCUCUAAUGCUGAAGCUUCGUGCAC
In the case of B20, the binding signal in test [1] was 0.318 z-score; in test [2] it was 0.329 z-score; in test [3], -0.187 z-score; in test [4], 1.24 z-score.

B21: hsa-let-7g (structured_RNA)
RNA: GGGAAAACGCGGUAAUUCAUAACGGAUAGGUGUACGAAGUUUCAGCACAGUUUGAGGGUCUAUGAUACCACCCGGUACAGGAGAUAACUGUGCUGAAGCUUCGUGCAC
Regarding B21, the binding signal in test [1] was determined as 1.89 z-score; in test [2] it was 2.69 z-score; in test [3], 0.967 z-score; in test [4], 0.877 z-score.

B22: hsa-mir-376a-1 (structured_RNA)
RNA: GGGAAAGCACUAUCCUAUUGCCGACCGGGGUGUACGAAGUUUCAGCUGAGUACAUUAUUUAUGAUUAAUCAGCUGAAGCUUCGUGCAC
In the case of B22, the binding signal was 0.318 z-score in test [1], -0.299 z-score in test [2], -0.789 z-score in test [3] and -1.31 z-score in test [4].

B23: PARIS_ID32 (structured_RNA)
RNA: GGGAACGGGGACUAAGUGACAGCACCUUGGUGUACGAAGUUUCAGCUGGUCUUGUAAUUAAAAUUCAAACACUAUAGAAAAAGGCCAGCUGAAGCUUCGUGCAC
In the case of B23, the binding signal was found to be 1.9 z-score in test [1], 0.862 z-score in test [2], 0.414 z-score in test [3] and 0.328 z-score in test [4].
